# Tested on: hippocampal slices
# Settings: previously stressed mice; APV 50 μM, DNQX 20 μM
substance,measurement,value
dinitroquinoxalinedione,Effect on the evoked pfp,blocked

# Source: patent US20040058357A1, “System and method for assaying drugs” (priority 2003, published 2004)
